Screening results deposited in PubChem BioAssay by several laboratories.
The list is not random: actives were taken first. Their share in the collection is about 2.3%.
ARFGAP1 inhibitor: inhibits rat ARF GTPase activating protein 1. inhibition, % at 16.5 µM. AID 651572. Arfgap1-stimulated ARF1 GTP hydrolysis, GDP FP detection. actives 0.26% (n = 360,000);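 active = inhibition above a per-plate limit, mean inhibition of low control wells plus 3 SD, cut at about 25% in these data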;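 also: 0% = DMSO wells with enzyme and 100% = wells lacking Arfgap1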
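Material – truncated rat Arfgap1 GAP domain · Buffer or medium – HEPES-based buffer, pH 7.5 · Reagent – human ARF1(Δ1-17)-GTP substrate · Dosing – 16.5 µM single point, 1.26% DMSO · Schedule – GTP hydrolysis reaction 2 h at 25 °C · Technique – GDP detection by fluorescence polarization · Benchmarks – No-Arfgap1 wells (100%) versus DMSO full-reaction wells (0%) · Repeats – single replicate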
Yeast UUG start: alters start codon recognition fidelity in yeast | S. cerevisiae UUG-firefly luciferase reporter, luminescence/redox ratio | activity score, % at 18.7 µM | 350,000 compounds, 0.13% hits | AID 602363;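 active = replicate mean at a twofold rise or more, about +100% in these data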;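 note: firefly luciferase made from a UUG start codon reports start codon fidelity; reporter light over untreated wells divided by growth signal over untreated wells; some hits fall short of that in this replicate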
MC4R antagonist: human MC4R antagonism in cAMP assay; actives 0.48% (n = 360,000); inhibition, % at 6.5 µM; AID 540295; MC4R-expressing cells, MTII-stimulated cAMP, LANCE TR-FRET;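 active = inhibition above its plate's cutoff, the mean of tested wells on that plate plus 3 SD, cut at about 29% in these data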;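 also: 0% = Melanotan II alone and 100% = Melanotan II plus saturating MCL0020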
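System: U2OS-MC4R stable cell line; Technique: Eu-cAMP/anti-cAMP TR-FRET, emission 671 nm; Repeats: single well per compound; Also added: Melanotan II; Dosing: one concentration, 6.5 µM nominal; Schedule: 30-min compound, 1-h challenge, 1-h detection, room temperature.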
ASAP1 GAP inh: inhibitors of human ASAP1 ArfGAP activity; ASAP1-stimulated ARF1 GTP hydrolysis, GDP FP detection; Q9ULH1; inhibition, % at 16.5 µM; actives 0.19% (n = 360,000); AID 624377; in the data active = inhibition above about 25%;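 also: 0% = vehicle with enzyme and substrate and 100% = no enzyme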
NRP1-CendR mod: modulators of CendR peptide binding to human neuropilin-1. AID 602438. O14786. inhibition, % at 25 µM. actives 0.85% (n = 360,000). FAM-RPARPAR peptide binding to NRP-1, fluorescence polarization;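 active = inhibition or corrected inhibition above about 18%, plus a signal ratio from 0.5 to 1.5, limit read from the data, passing the limit was not always enough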
MC4R ag barr: activates human MC4R beta-arrestin recruitment; AID 540308; actives 0.98% (n = 360,000); U2OS MC4R beta-arrestin complementation, luminescence; percent of melanotan II response, DMSO zero; P32245; activation, % at 8.9 µM;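 active = activation above a per-plate cutoff, the mean activation of sample wells on that plate plus 3 SD, cut at about 8% in these data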
Starred values were filed as active, the others as inactive; · = no result.

no.	MC4R antagonist	ARFGAP1 inhibitor	ASAP1 GAP inh	Yeast UUG start	NRP1-CendR mod	MC4R ag barr	SMILES
1	25	-1	5	·	42*	-3	Brc1ccc(N/N=C(/N=Nc2nn[nH]n2)c2ccccc2)cc1
2	·	·	·	-15	·	·	CN(C)CC(=O)Nc1ccc2c(c1)[C@@H]1C[C@H](CC(=O)NCc3cccnc3)O[C@@H](CO)[C@@H]1O2
3	-4	-5	-8	-10	32*	-3	COc1cccc(NC(=O)COc2ccccc2C(N)=O)c1
4	10	3	10	-16	24*	-2	Cn1c(SCC(=O)Nc2ccc(F)cc2)nc2c(c1=O)SCC2
5	-5	-9	13	-2	33*	0	Cc1ccc(C(C#N)c2ccc(C(=O)c3ccc(F)cc3)cc2)cc1 (centres undefined)
6	-2	-1	8	·	3	0	N#CC(c1ccc(F)cc1)c1ccc(C(=O)c2ccc(F)cc2)cc1 (centres undefined)
7	1	11	8	-5	20*	1	CN(C(=O)Cn1c(=O)oc2ccccc21)C1CCCCC1
8	0	-1	4	9	23*	0	CN(CC(=O)Nc1cccc(F)c1)C(=O)Cn1c(=O)oc2ccccc21
9	5	-18	7	-23	0	-1	CC1CCCCN1C(=O)Cn1c(=O)oc2ccccc21 (centres undefined)
10	18	7	8	-7	4	1	CCC1=C(OC(=O)N(CC)CC)N2C(=O)OC(=NCC3CC3)[C@]2(Cc2ccccc2)[C@H]2C1=CC[C@H]1C(=O)N(c3ccccc3)C(=O)[C@H]12
11	4	15	-6	11	26*	-1	CCC1=C(OC(=O)N(CC)CC)N2C(=O)OC(=NCC3CC3)[C@]2(Cc2ccccc2)[C@H]2C1=CC[C@H]1C(=O)N(C)C(=O)[C@H]12
12	0	4	3	3	35*	-1	CCC1=C(OC(=O)N(CC)CC)N2C(=O)OC(=NCCOC)[C@]2(Cc2ccccc2)[C@H]2C1=CC[C@H]1C(=O)N(CC(=O)OC)C(=O)[C@H]12

4 of the entries above in order of their number in MC4R antagonist, low to high:
entry	Molecule	MC4R antagonist	ARFGAP1 inhibitor	ASAP1 GAP inh	Yeast UUG start	NRP1-CendR mod	MC4R ag barr
6	N#CC(c1ccc(F)cc1)c1ccc(C(=O)c2ccc(F)cc2)cc1 (centres undefined)	-2	-1	8	·	3	0
12	CCC1=C(OC(=O)N(CC)CC)N2C(=O)OC(=NCCOC)[C@]2(Cc2ccccc2)[C@H]2C1=CC[C@H]1C(=O)N(CC(=O)OC)C(=O)[C@H]12	0	4	3	3	35*	-1
10	CCC1=C(OC(=O)N(CC)CC)N2C(=O)OC(=NCC3CC3)[C@]2(Cc2ccccc2)[C@H]2C1=CC[C@H]1C(=O)N(c3ccccc3)C(=O)[C@H]12	18	7	8	-7	4	1
1	Brc1ccc(N/N=C(/N=Nc2nn[nH]n2)c2ccccc2)cc1	25	-1	5	·	42*	-3

Continuation.
no.	MC4R antagonist	ARFGAP1 inhibitor	ASAP1 GAP inh	Yeast UUG start	NRP1-CendR mod	MC4R ag barr	SMILES
13	·	·	·	-15	·	·	COCCNC(=O)C[C@@H]1CC[C@H]2[C@@H](COc3ccc(NC(=O)c4cc(C)on4)cc3C(=O)N2C)O1
14	-10	-1	6	·	27*	2	COCc1cc(=O)[nH]c(/N=C(\N)Nc2ccc(C)cc2C)n1
15	0	-4	1	-15	28*	-2	Cc1ccc(CNC(=O)C2CCC(=O)N(C3CC3)C2)cc1 (centres undefined)
16	2	-6	-1	-4	28*	-1	Cc1c(Cl)cccc1NC(=S)NCc1cccn1C
17	·	·	·	-6	·	·	C[C@@H]1CN([C@H](C)CO)C(=O)c2cc(NS(=O)(=O)c3cccs3)ccc2O[C@@H](C)CCCCO[C@@H]1CN(C)S(=O)(=O)c1ccc(F)cc1
18	8	1	8	-13	7	-1	CCOC(=O)C[C@H]1c2ccc(C(F)(F)F)cc2S(=O)(=O)N1Cc1ccccc1
19	2	-21	-12	-15	22*	0	CCOC(=O)C[C@H]1c2ccc(C(F)(F)F)cc2S(=O)(=O)N1C(C)(C)C
20	1	3	-6	4	26*	-2	CCOC(=O)C[C@H]1c2cc(C(F)(F)F)ccc2S(=O)(=O)N1Cc1ccccc1
21	7	-4	-9	-5	8	-1	CCOC(=O)C[C@H]1c2ccc(C(F)(F)F)cc2S(=O)(=O)N1C1CCCC1
22	·	·	·	2	·	·	C/C=C/c1ccc([C@H]2[C@@H](CO)N3CCCCN(C(=O)Nc4cc(F)ccc4F)C[C@H]23)cc1
23	-4	-5	-1	-10	27*	1	O=C(C1CC1)N1N=C(c2ccc(Cl)cc2)CC1(O)C(F)(F)F (centres undefined)
24	·	·	·	8	·	·	CCC(=O)N1[C@@H]2c3ccc(C4=CCCCC4)c(=O)n3C[C@@H]2[C@@H](CO)[C@@H]1C(=O)NC1CCC1
25	-2	·	·	-17	-27	4	CN1CCN(C2=C(Cl)C(=O)N(c3ccc(Cl)cc3)C2=O)CC1
26	0	-2	6	10	32*	1	Cc1ccc(N2C(=O)C(Cl)=C(N3CCN(C)CC3)C2=O)c(C)c1
